Laboratory results reported in patent US20230174933A1, “METHODS OF MAKING CHIMERIC ANTIGEN RECEPTOR-EXPRESSING CELLS” (Novartis AG, priority 2020, published 2023).

Experiments:
T cells = assay: T cell expansion with cytokines after αCD3/αCD28 bead stimulation; format: cell-based; conditions: αCD3/αCD28 bead stimulated T cells plus cytokine
Method: Previously frozen T cells were thawed and contacted with αCD3/αCD28 dynal beads (cell to bead ratio of 1 to 3) in the presence of indicated cytokines at day 0. From day 3, twice more T cell growth media (RPMI1640, 10% FBS, 2 mM L-glutamin, 100 μM non-essential amino acids, 1 mM sodium pyruvate, 10 mM Hepes, 55 μM β-mercaptoethanol, 10% FBS, and 100 U/ml of penicillin-streptomycin) was added to the plate with indicated cytokines (without cytokine, rhIL2 (50 IU/ml, Novartis), IL6 (long/ml, R&D systems), IL7 (long/ml, Peprotech), IL15 (long/ml, Peprotech), and IL21 (long/ml, Peprotech)) at day 3, 5, 6, 9, 12, 15, and 18. Cells treated without cytokine, IL6, or IL21 were cultured until day 18 and cells treated with IL2, IL7, or IL15 were cultured until day 25.
Cells were harvested at indicated time points and then stained with live/dead dye (eFluro780, eBioscience), CD3 (BioLegend, clone#: OKT3), CD4 (BioLegend, clone#: OKT4), CD8 (BD Bioscience, clone#: RPA-T8), CD45RO (BioLegend, clone#: UCHL1), CCR7 (BioLegend, clone#: G043H7), CD27 (BD Horizon, clone#: L128), CD127 (BioLegend, clone#: A019D5), CD57 (BioLegend, clone#: HCD57), CD126 (BioLegend, clon#: UV4), and CD130 (R&D Systems, clone#: 28126) antibodies. The cells were acquired by FACS Fortessa and then FlowJo program was used for data analysis.

[1] = tested on: T cells activated with αCD3αCD28 beads; assay: Fold expansion, cell size and viability of cytokine treated T cells after TCR engagement; format: cell-based; conditions: T cells activated with αCD3αCD28 beads at day 0 in the presence of cytokine
Excerpt: FIG. 12: Fold expansion of cytokine treated T cells after TCR engagement. T cells were activated with αCD3αCD28 beads at day 0 in the presence of indicated cytokines and then monitored for cell numbers at indicated time points.
T cells were activated with αCD3αCD28 beads at day 0 in the presence of indicated cytokines and then monitored for cell size (FIG. 13A) and viability (FIG. 13B) at indicated time points.

In the case of IL2: cytokine, the T cell expansion (T cells) is reported as “enhanced T cell expansion”, the cell size [1] is reported as “did not affect” and the viability [1] is reported as “did not affect”.
